Reference: patent publication US10973819B2, “Small molecules inhibitors of RAD51” (The University of Chicago, priority 2016, dated 2021)

Target: T1, RAD51 (Homo sapiens, UniProt Q06609)
T1 sequence (Q06609 1-339): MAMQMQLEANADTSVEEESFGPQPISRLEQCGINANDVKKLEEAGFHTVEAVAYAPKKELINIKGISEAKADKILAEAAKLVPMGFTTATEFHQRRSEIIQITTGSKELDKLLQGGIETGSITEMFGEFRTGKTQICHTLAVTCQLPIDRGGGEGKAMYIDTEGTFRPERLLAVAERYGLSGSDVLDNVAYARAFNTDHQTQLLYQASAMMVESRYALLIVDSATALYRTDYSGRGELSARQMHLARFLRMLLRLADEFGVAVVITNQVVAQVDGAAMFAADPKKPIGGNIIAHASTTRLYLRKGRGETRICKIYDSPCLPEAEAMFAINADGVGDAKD
Test: Fluorescence polarization-based DNA binding assay (RAD51-ssDNA binding)
Type: biochemical
Settings: Table 2; Stim = stimulator
Experimental: The fluorescence polarization-based DNA binding assay and purification of human RAD51 used for this assay was performed as previously described with a few modifications.^23 Reactions were carried out in black 384-well polystyrene plates. In each well, RAD51 protein was combined with reaction buffer and varying concentrations of compound in DMSO in an initial volume of 40 μl and incubated at 37° C. for 40 minutes. Then, 10 μl of reaction buffer containing fluorescently-labeled ssDNA substrate (5′-Alexa488-oligo-dT45) was added and the reaction incubated at 37° C. for another 40 minutes, after which the plate was read on a Tecan Infinite 200 Pro plate reader equipped with two sets of 485±25 nm/535±35 nm with parallel or perpendicularly-oriented polarization filters. In both steps of the reaction setup, buffer components were maintained at 20 mM HEPES-NaOH (pH 7.5), 2 mM ATP, 10 mM MgCl2, 0.1 mM TCEP-HCl (tris(2-carboxyethyl)phosphine), and 0.25 μM BSA. The final reaction contained 4% DMSO, 0.2 μM RAD51, 30 mM NaCl, 2% glycerol, and 2.22 nM ssDNA substrate. Compound IC50 values were obtained by least-squares regression fitting of appropriate linear, log, or sigmoid dose-response models to the data, with the standard error indicated. […]

| SMILES | IC50 [µM] |
| --- | --- |
| CCNc1ccc(-c2nc3ccccc3n3cccc23)cc1 [Compound 9h, N-ethyl-4-(pyrrolo[1,2-a]quinoxalin-4-yl)aniline] | > 100 |

Target: T1, RAD51
Test: Gel-based D-loop assay
Type: biochemical
Settings: Table 2
Experimental: Human RAD51 in reaction buffer was combined with compound in […] DMSO, incubated at 37° C. for 10 min, and then 1 μl of 5′-^32P-labeled 90-mer ssDNA (5′-[…]) with homology to the plasmid pRS306 ^34 was added and the reaction was incubated at 37° C. for an additional 5 minutes. 1 μl of supercoiled pRS306 was then added to the reaction and incubated at 37° C. for 20 minutes; at this point the reaction consisted of 25 mM HEPES-NaOH (pH 7.0), 1 mM ATP, 1 mM MgCl2, 1 mM DTT, 1.5 μM BSA, 4.5% DMSO, 0.5 μM RAD51, 11 mM NaCl, 1% glycerol, 20 nM ssDNA, and 5 nM pRS306. The reactions were de-proteinized with 0.8% SDS and 0.8 mg/ml proteinase K, mixed with gel loading buffer, and run on a 0.9% agarose/1×TAE gel, which was dried and exposed to a phosphor screen overnight and imaged on a Storm 860 PhosphorImager. Compound IC50 values were obtained by least-squares regression fitting of appropriate linear, log, or sigmoid dose-response models to the data, with the standard error indicated.
To improve upon the D-loop inhibitory activity, medicinal chemical studies were undertaken to optimize 8. First, different functional groups were appended to rings A and B as substituents, including alkyl groups of different sizes, electron withdrawing/donating groups, and hydrogen bond donor/acceptor groups. Next, replacement of the phenyl ring B with different heterocycles or other saturated/unsaturated rings was investigated in order to probe its role. For each of the prepared compounds, the gel-based D-loop assay and the microplate-based DNA binding assay were used to characterize the biochemical activities.

| SMILES | D-Loops Max inhibition effect [%] |
| --- | --- |
| CN(C)c1ccc(-c2nc3ccccc3n3cccc23)cc1 [Compound 9a, N,N-dimethyl-4-(pyrrolo[1,2-a]quinoxalin-4-yl)aniline] | 61 ± 4 |
| O=[N+]([O-])c1cccc(-c2nc3ccccc3n3cccc23)c1 [Compound 9b, 4-(3-Nitrophenyl)pyrrolo[1,2-a]quinoxaline] | 20 ± 8 |
| Nc1cccc(-c2nc3ccccc3n3cccc23)c1 [Compound 9c, 3-(Pyrrolo[1,2-a]quinoxalin-4-yl)aniline] | 79 ± 8 |
| Oc1ccc(-c2nc3ccccc3n3cccc23)cc1 [Compound 9d] | 38 ± 3 |
| FC(F)(F)Oc1ccc(-c2nc3ccccc3n3cccc23)cc1 [Compound 9e, 4-(4-(Trifluoromethoxy)phenyl)pyrrolo[1,2-a]quinoxaline] | 22 ± 8 |
| O=[N+]([O-])c1ccc(-c2nc3ccccc3n3cccc23)cc1 [Compound 9f, 4-(4-Nitrophenyl)pyrrolo[1,2-a]quinoxaline] | 2 ± 21 |
| Nc1ccc(-c2nc3ccccc3n3cccc23)cc1 [Compound 9g, 4-(Pyrrolo[1,2-a]quinoxalin-4-yl)aniline] | 100 ± 2 |
| c1ccc2c(c1)nc(-c1ccc(N3CCCC3)cc1)c1cccn12 [Compound 9i, 4-(4-(Pyrrolidin-1-yl)phenyl)pyrrolo[1,2-a]quinoxaline] | 8 ± 7 |
| c1cncc(-c2nc3ccccc3n3cccc23)c1 [Compound 11a, 4-(Pyridin-3-yl)pyrrolo[1,2-a]quinoxaline] | 70 ± 13 |
| c1ccc2c(c1)nc(-c1ccncc1)c1cccn12 [Compound 11b, 4-(Pyridin-4-yl)pyrrolo[1,2-a]quinoxaline] | 63 ± 4 |
| C1=C(c2nc3ccccc3n3cccc23)CCCC1 [Compound 11c, 4-(Cyclohex-1-en-1-yl)pyrrolo[1,2-a]quinoxaline] | 5 ± 11 |
| c1ccc2c(-c3nc4ccccc4n4cccc34)cccc2c1 [Compound 11d, 4-(Naphthalen-1-yl)pyrrolo[1,2-a]quinoxaline] | 42 ± 11 |

Same assay, conditions: Table 2; read-out: D-Loops IC50

| SMILES | IC50 [µM] |
| --- | --- |
| CCNc1ccc(-c2nc3ccccc3n3cccc23)cc1 [Compound 9h, N-ethyl-4-(pyrrolo[1,2-a]quinoxalin-4-yl)aniline] | 15.8 ± 3.1 |

Same assay, conditions: Table 3

| SMILES | D-Loops Max inhibition effect [%] |
| --- | --- |
| COc1ccc2c(c1)nc(-c1ccc([N+](=O)[O-])cc1)c1cccn12 [Compound 12b, 7-Methoxy-4-(4-nitrophenyl)pyrrolo[1,2-a]quinoxaline] | 17 ± 7 |
| Oc1ccc(-c2nc3cc(O)ccc3n3cccc23)cc1 [Compound 12d, 4-(4-Hydroxyphenyl)pyrrolo[1,2-a]quinoxalin-7-ol] | 97 ± 8 |
| O=[N+]([O-])c1ccc(-c2nc3cc(O)ccc3n3cccc23)cc1 [Compound 12e, 4-(4-Nitrophenyl)pyrrolo[1,2-a]quinoxalin-7-ol] | 13 ± 10 |
| Nc1ccc(-c2nc3cc(O)ccc3n3cccc23)cc1 [Compound 12f, 4-(4-Aminophenyl)pyrrolo[1,2-a]quinoxalin-7-ol] | 100 ± 3 |
| Nc1ccc(-c2nc3cc(F)ccc3n3cccc23)cc1 [Compound 12i, 4-(7-Fluoropyrrolo[1,2-a]quinoxalin-4-yl)aniline] | 95 ± 6 |
| CN(C)c1ccc(-c2nc3cc(F)ccc3n3cccc23)cc1 [Compound 12j, 4-(7-Fluoropyrrolo[1,2-a]quinoxalin-4-yl)-N,N-dimethylaniline] | 31 ± 4 |
| Nc1ccc(-c2nc3cc(F)c(F)cc3n3cccc23)cc1 [Compound 12l, 4-(7,8-Difluoropyrrolo[1,2-a]quinoxalin-4-yl)aniline] | 59 ± 4 |
| CN(C)c1ccc(-c2nc3cc(F)c(F)cc3n3cccc23)cc1 [Compound 12m, 4-(7,8-Difluoropyrrolo[1,2-a]quinoxalin-4-yl)-N,N-dimethylaniline] | 19 ± 15 |
| CCCOc1ccc2c(c1)nc(-c1ccc(N)cc1)c1cccn12 [Compound 15a, 4-(7-Propoxypyrrolo[1,2-a]quinoxalin-4-yl)aniline] | 75 ± 7 |
| Nc1ccc(-c2nc3cc(OCCF)ccc3n3cccc23)cc1 [Compound 15b, 4-(7-(2-Fluoroethoxy)pyrrolo[1,2-a]quinoxalin-4-yl)aniline] | 98 ± 5 |
| CN(C)c1ccc(-c2nc3cc(OC(C)(C)C(N)=O)ccc3n3cccc23)cc1 [Compound 16, 2-((4-(4-(Dimethylamino)phenyl)pyrrolo[1,2-a]quinoxalin-7-yl)oxy)-2-methylpropanamide] | 38 ± 4 |

Same assay, conditions: Table 3; read-out: D-Loops IC50

| SMILES | IC50 [µM] |
| --- | --- |
| Oc1ccc2c(c1)nc(-c1cccnc1)c1cccn12 [Compound 13b, 4-(Pyridin-3-yl)pyrrolo[1,2-a]quinoxalin-7-ol] | 64.9 ± 31.6 |
